Experiments:
in vivo [1] = details: CD1, mouse, brain/plasma, po, 5 mg/kg
in vivo [2] = details: CD1, mouse, brain/plasma, po, 100 mg/kg

Kp (in vivo [1]): 0.24
Kp (in vivo [2]): 0.38
SMILES: C[C@H](Nc1ccc(C#N)n(C)c1=O)c1cc2cc(Cl)ccc2[nH]c1=O [OLUTASIDENIB]

Reference: ChEMBL document CHEMBL4321881 (J Med Chem, 2020)
